From patent publication US12492236B2, “Fusion proteins for the treatment of cardiometabolic diseases” (Shattuck Labs, Inc., priority 2022, dated 2025)

Test system: HFD-fed mice (Male C57BL/6)
Experiment: longer-term obesity model in HFD-fed mice
Description: Briefly, mice (Male C57BL/6) were of approximately 13 weeks of age were housed 4 mice per cage. Following 2 weeks of acclimation, mice were introduced to 60% kcal HFD (Research Diets D12492). Cages were changed once, then changed once a week. Weekly body weights and non-fasted blood glucose were collected. […] The longer-term obesity model assesses a number of end points associated with obesity related type 2 diabetes (FIG. 6A).
Mice (Male C57BL/6) were of approximately 13 weeks of age were housed 4 mice per cage. Following 2 weeks of acclimatation, mice were introduced to 60% kcal HFD (Research Diets D12492). Cages were changed once, then changed once a week. Weekly body weights and non-fasted blood glucose were collected.
Mice were injected by tail vein with vehicle or the drugs on Day 0, Day 4, Day 7, Day 10, Day 14, and Day 18. Body weights were measured every 2 days. Change in body weight was calculated and plotted.
Cumulative food intake was measured between day 0 and 3, between day 4 and 7, between day 7 and day 11, and between day 11 and day 14, and represented as average daily food intake. […]
Blood glucose levels were measured on Days 0, 1, 10 and 15 and plotted. […]
To further analyze the changes in liver, histopathological analysis was conducted. Briefly, the liver tissue was stained with hematoxylin and eosin (H&E) and evaluated using standard techniques.

Question: For tirzepatide [reference compound], which “clinical observations post dose” value is on record?
Answer: moribund, lethargic, scruffy, and consumed significantly less food and water immediately post dose
